Literature values as cited in US20210223230A1, “Neamine Compositions and Methods of Use Thereof” (President and Fellows of Harvard College, priority 2008, published 2021).

Conditions: cited from earlier work

For neomycin, the “acute LD50 (subcutaneous) in mice” value is given as 220 mg/kg.
